In patent US12421254B2, “KRAS modulators and uses thereof” (Quanta Therapeutics, Inc., priority 2023, dated 2025) one finds IC50 data, which are given here for one molecule.

Chains of the proteins cited; added tags and fusions are not shown. Residues count along the entry.
UniProt P01116, 2-169 isoform 2 G12D limits assumed: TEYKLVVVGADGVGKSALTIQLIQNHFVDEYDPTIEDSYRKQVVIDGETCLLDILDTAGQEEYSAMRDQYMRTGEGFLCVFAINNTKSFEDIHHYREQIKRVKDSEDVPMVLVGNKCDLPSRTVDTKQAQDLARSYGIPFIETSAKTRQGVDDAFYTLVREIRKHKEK
UniProt P01116, 2-169 isoform 2 G12V limits assumed: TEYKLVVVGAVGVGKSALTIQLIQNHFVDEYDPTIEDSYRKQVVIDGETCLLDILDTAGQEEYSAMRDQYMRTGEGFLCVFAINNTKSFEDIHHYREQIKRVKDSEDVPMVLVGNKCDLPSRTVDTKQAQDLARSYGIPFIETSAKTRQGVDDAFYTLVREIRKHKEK

Assay [1] concerns phospho-ERK in SW620 (KRAS-G12V) cells. Briefly: pERK In Cell Western (ICW) assay (Method B), SW620. To be noted: read-out: ICW SW620 IC50, Table 4, 3 hours, tested form: TFA. As for the experimental part: (§1) pERK ICW is a high throughput screening assay to evaluate the cellular potency of mutant KRAS small molecule inhibitors. KRAS mutant cell lines AGS, GP2D (KRAS-G12D) as well as SW620 (KRAS-G12V) were purchased from ATCC and maintained respectively in RPMI/DMEM/RPMI medium supplemented with 10% fetal bovine serum.
(§2) Cells grown in exponential phase were trypsinized, resuspended in fresh media, and viable cells were counted using a cell counter with Trypan Blue (BioRad TC20). Cells were seeded into 384-well plate (Greiner 781091) at density of 5,000 cells/well for AGS and 10,000 cells/well for GP2D/SW620 and allowed to grow overnight in a 37° C. CO2 incubator. The next day, compounds were dispensed into wells with a ½ log, 9-point serial dilution using a Tecan D300e dispenser and incubated for 3 hours in a 37° C. CO2 incubator. Cells were then fixed with paraformaldehyde (Electron Microscopy Sciences, 15710, 4% final concentration) for 30 min, permeabilized with wash buffer (1×PBS+0.1% Triton X-100) for 30 min and blocked with Odyssey blocking buffer (Li—COR 927-70001) for 1 hour, all at room temperature (RT). Phospho-ERK antibody (CST 4370L) was diluted 1:500 in Odyssey T20 (PBS) antibody diluent (Li—COR 927-75001) and incubated with cells overnight at 4° C. […]

Assay [2] addresses GST-tagged KRAS-G12V (2-169) (Homo sapiens, UniProt P01116, G12V). Briefly: Nucleotide exchange assay (NEA), SOS-mediated, HTRF, KRAS G12V. To be noted: read-out: NEA G12V IC50; Table 4; IC50 extracted at 90 min; 80 nM SOS; tested form: TFA. The text has this:
(§3) This activity is tightly regulated by GTPase activating proteins (GAPs) and guanine nucleotide exchange factors (GEFs). GEFs, such as SOS1/2, activate Ras proteins by exchanging GDP for GTP, thus returning Ras to its active conformation (Simanshu, Nissley, & McCormick, 2017). […] Homogenous time resolved fluorescence (HTRF) was used to detect SOS-mediated binding of a fluorescent GTP analog, GTP-DY-647P1 (Jena Biosciences NU-820-647P1) to GST-tagged KRAS-G12D (2-169) or to GST-tagged KRAS-G12V (2-169, Reaction Biology, MSC-11-540).
(§4) GST-tagged KRAS-G12D (2-169) and anti-GST MAb Tb Cryptate Gold (CisBio 61GSTTLB) were diluted into assay buffer (20 mM HEPES, pH 7.3, 150 mM NaCl, 5 mM MgCl2, 0.05% BSA 0.0025% NP40, 1 mM DTT) to prepare a 2.5× donor solution. 5× compound was added to the protein mixture and incubated for 1 h at RT. 2.5× acceptor solution containing SOS1cat (564-1049, Reaction Biology MSC-11-502) and GTP-DY-647P1 were then added to the donor KRAS mixture such that the final concentration of the reaction contained 0.25 nM GST-tagged KRAS-G12D (2-169), 20 nM SOScat, and 150 nM GTP-DY-647P1. The reaction was monitored using at RT with the Envision multimode plate reader (Ex/Em 337/665, […]) up to 90 minutes at 5 minute intervals. […] Data was blanked to reactions without SOS1 and % inhibition was calculated such that DMSO only =0% and blank=100%. […]
(Time-resolved FRET reads energy transfer from a long-lived donor to a nearby acceptor.)

Assay [3] addresses GST-tagged KRAS-G12D (2-169) (Homo sapiens, UniProt P01116, G12D). In words: Nucleotide exchange assay (NEA), SOS-mediated, HTRF, KRAS G12D. To be noted: read-out: NEA G12D IC50; Table 4; IC50 extracted at 30 min; 20 nM SOScat; tested form: TFA.
Source text: as §3, §4

For assay [4], the system named is phospho-ERK in GP2D (KRAS-G12D) cells. In words: pERK In Cell Western (ICW) assay (Method B), GP2D. The note with it: read-out: ICW GP2D IC50, Table 4, 3 hours, tested form: TFA. As for the experimental part: as §1, §2

As for `CC1(O)CCCN(c2nc(OCC3(CN4CCOCC4)CC3)nc(N3CC4(CCc5sc(N)c(C#N)c54)C3)n2)C1` (stereo not shown), the IC50 (usually the point on the concentration scale where inhibition reaches its midpoint) was 100 to 1000 nM in assay [1], under 10 nM in assay [2], under 10 nM in assay [3] and 10 to 100 nM in assay [4].
